# Data taken from patent US20040209897A1 (Pharmacia Corporation, priority 2002, published 2004).
# Sequences of proteins named here, by UniProt entry; tags and fusion partners are left off.
# UniProt P49137, whole entry, species assumed: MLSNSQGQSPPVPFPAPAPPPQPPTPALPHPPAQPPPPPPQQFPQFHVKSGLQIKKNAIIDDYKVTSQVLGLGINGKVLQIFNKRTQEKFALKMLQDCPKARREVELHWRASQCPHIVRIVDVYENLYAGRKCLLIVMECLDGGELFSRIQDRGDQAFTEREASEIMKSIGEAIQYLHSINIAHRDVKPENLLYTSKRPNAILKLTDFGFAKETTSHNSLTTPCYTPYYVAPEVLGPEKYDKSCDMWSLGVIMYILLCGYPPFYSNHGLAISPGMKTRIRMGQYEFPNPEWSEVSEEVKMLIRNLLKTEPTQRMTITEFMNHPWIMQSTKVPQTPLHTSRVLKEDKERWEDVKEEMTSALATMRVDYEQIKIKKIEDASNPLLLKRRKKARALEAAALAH
# Counter-ions that a name gives are not always drawn.
# Molecular target: Recombinant MAPKAPK2 (MK-2) (Homo sapiens, UniProt P49137)
# Assay: Determination of MK-2 IC50 (HSP-peptide phosphorylation, anion exchange resin capture assay)
# Assay type: biochemical
# Settings: MAPKAP2 Avg. IC50
row,Compound,IC50
1,"O=C1NCCc2[nH]c(-c3ccnc(-c4cccnc4)c3)cc21 [Example 268, 7-Methyl-2-(2-quinolin-3-ylpyridin-4-yl)-1,5,6,7-tetrahydro-4H-pyrrolo[3,2-c]pyridin-4-one trifluoroacetate]",47.9 nM
2,"O=C(O)/C=C\C(=O)Nc1ccc(-c2cc(-c3cc4c([nH]3)CCNC4=O)ccn2)cc1 [Example 127, 2-[2-(1H-indazol-5-yl)pyridin-4-yl]-1,5,6,7-tetrahydro-4H-pyrrolo[3,2-c]pyridin-4-one]",24.8 nM
3,"O=C1NCCc2[nH]c(-c3ccnc(/C=C\c4c[nH]nc4-c4ccccc4)c3)cc21 [Example 229, 2-(6′-{[(1S)-1-phenylethyl]amino}-2,3′-bipyridin-4-yl)-1,5,6,7-tetrahydro-4H-pyrrolo[3,2-c]pyridin-4-one trifluoroacetate]",39.3 nM
4,"O=C(CBr)Nc1ccc(-c2cc(-c3cc4c([nH]3)CCNC4=O)ccn2)cc1 [Example 3, 4-[4-(4-oxo-4,5,6,7-tetrahydro-1H-pyrrolo[3,2-c]pyridin-2-yl)pyridin-2-yl]benzoic acid trifluoroacetate]",5.85 nM
5,"N#[N+]c1c(-c2ccnc(-c3cccc(F)c3)c2)[nH]c2c1C(=O)NCC2 [Example 606, 2-{2-[(E)-2-(6-methoxy-2-naphthyl)vinyl]pyridin-4-yl}-1,5,6,7-tetrahydro-4H-pyrrolo[3,2-c]pyridin-4-one trifluoroacetate]",359 nM
6,"O=C1NCCc2[nH]c(-c3cc(-c4ccccc4F)ncn3)cc21 [Example 696, 2-(2-{(E)-2-[4-(morpholin-4-ylmethyl)phenyl]vinyl}pyridin-4-yl)-1,5,6,7-tetrahydro-4H-pyrrolo[3,2-c]pyridin-4-one trifluoroacetate]",1190 nM
7,"O=C1NCCc2[nH]c(-c3ccnc(-c4ccc(CCCNCCCc5ccccc5)nc4)c3)cc21 [Example 228, 2-(6′-{[(1R)-1-phenylethyl]amino}-2,3′-bipyridin-4-yl)-1,5,6,7-tetrahydro-4H-pyrrolo[3,2-c]pyridin-4-one trifluoroacetate]",39.3 nM
8,"O=C1NCCc2[nH]c(-c3ccnc(/C=C/c4cccc(C(=O)N5CCOCC5)c4)c3)cc21 [Example 92, (2E)-3-{4-[4-(4-oxo-4,5,6,7-tetrahydro-1H-pyrrolo[3,2-c]pyridin-2-yl)pyridin-2-yl]phenyl}prop-2-enoic acid trifluoroacetate]",20.1 nM
